Structures are written as SMILES. pIC50: −log10 of the molar value.

The chains behind the UniProt entries cited, without tags or fusion partners.
UniProt P27338, whole entry: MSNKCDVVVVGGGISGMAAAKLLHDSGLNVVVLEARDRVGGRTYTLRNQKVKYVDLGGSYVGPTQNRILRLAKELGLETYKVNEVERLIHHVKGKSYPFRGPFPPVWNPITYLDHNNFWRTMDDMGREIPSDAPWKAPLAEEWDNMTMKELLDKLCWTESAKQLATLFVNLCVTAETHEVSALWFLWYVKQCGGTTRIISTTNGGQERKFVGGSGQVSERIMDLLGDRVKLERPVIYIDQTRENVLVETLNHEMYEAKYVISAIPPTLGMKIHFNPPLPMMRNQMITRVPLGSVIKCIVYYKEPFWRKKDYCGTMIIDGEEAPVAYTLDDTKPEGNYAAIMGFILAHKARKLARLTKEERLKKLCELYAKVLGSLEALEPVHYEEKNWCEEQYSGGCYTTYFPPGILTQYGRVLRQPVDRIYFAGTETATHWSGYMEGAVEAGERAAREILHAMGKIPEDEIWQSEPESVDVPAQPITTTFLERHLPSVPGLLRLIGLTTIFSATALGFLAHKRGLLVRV

The pIC50 is the negative decadic logarithm of the IC50, by convention in mol/L.

The assay addresses Human recombinant monoamine oxidase MAO-B (Homo sapiens, UniProt P27338). Put plainly: biochemical.

Consider `CN1CCN(C(=O)CNC2CC2c2ccc(C3CC3)cc2)CC1` (stereo not shown) [Selective-2], for which the pIC50 is less than 6.00.

The record behind these values is patent US20160081947A1, “SELECTIVE LSD1 AND DUAL LSD1/MAO-B INHIBITORS FOR MODULATING DISEASES ASSOCIATED WITH ALTERATIONS IN PROTEIN CONFORMATION” (ORYZON GENOMICS S.A., priority 2010, published 2016).
